According to PubChem BioAssay AID602162 (NMMLSC, 2011):
This is a selection; strong and weak results do not stand in their true shares. Activity calls are given as the source filed them.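 Rule for the calls: active = fluorescence ratio to DMSO below 75%, the collection mean minus 3 SD; inconclusive = too few cells collected in the well; inactive = the rest.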

Sequences of proteins named here, by UniProt entry; tags and fusion partners are left off.
UniProt Q9NP58, whole entry: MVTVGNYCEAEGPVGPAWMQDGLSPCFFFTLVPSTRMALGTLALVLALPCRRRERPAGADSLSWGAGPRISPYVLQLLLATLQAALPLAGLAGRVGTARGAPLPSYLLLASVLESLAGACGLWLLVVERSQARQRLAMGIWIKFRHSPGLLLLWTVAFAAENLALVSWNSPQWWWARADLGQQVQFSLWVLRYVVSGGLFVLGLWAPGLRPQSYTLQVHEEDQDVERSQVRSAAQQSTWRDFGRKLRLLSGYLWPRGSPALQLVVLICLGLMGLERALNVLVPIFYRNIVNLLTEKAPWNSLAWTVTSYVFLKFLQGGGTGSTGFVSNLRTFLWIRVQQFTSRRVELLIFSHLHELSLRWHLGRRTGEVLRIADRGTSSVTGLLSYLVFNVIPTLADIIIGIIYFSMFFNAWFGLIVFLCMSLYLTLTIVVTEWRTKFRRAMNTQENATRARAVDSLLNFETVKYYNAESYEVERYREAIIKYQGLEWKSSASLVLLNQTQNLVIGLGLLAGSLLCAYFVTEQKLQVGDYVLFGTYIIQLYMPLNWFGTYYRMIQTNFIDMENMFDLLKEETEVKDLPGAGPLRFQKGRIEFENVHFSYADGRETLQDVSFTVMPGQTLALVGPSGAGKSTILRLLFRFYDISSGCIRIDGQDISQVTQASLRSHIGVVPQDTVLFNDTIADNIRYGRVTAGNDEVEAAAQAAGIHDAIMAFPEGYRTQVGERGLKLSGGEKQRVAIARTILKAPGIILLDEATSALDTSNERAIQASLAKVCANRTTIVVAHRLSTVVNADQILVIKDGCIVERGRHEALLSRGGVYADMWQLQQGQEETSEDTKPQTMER

Biological target: ATP-binding cassette sub-family B member 6 (Homo sapiens) (UniProt Q9NP58)
Test: blockers of ABCB6-driven porphyrin uptake – K562-ABCB6 cells, flow cytometry, MLPCN library, primary screen (AID 602162);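 note: signal is porphyrin accumulated inside mitochondria; 100% equals median channel fluorescence of DMSO control wells; lower ratio means ABCB6 inhibition with less porphyrin fluorescence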
Settings: K562-ABCB6 porphyrin accumulation, 1 h, at 10 µM, hits give low values

Question: With `CCCCn1nnnc1C(c1cccc(OC)c1OC)N1CCC(n2c(=O)[nH]c3ccccc32)CC1` (configuration not stated) as the compound, how does the fluorescence ratio to DMSO read?
Answer: The fluorescence ratio to DMSO was inactive: 97%.

Question: For `O=C(OC1CN2CCC1CC2)C1c2ccccc2C=Cc2ccccc21` (configuration not stated), which fluorescence ratio to DMSO is on record?
Answer: Its fluorescence ratio to DMSO is inactive: 93%.

Question: How did the fluorescence ratio to DMSO turn out when `O=c1[nH]c2ccccc2n1C1CCN(C(c2cccs2)c2nnnn2C2CCCC2)CC1` (configuration not stated) was run?
Answer: The fluorescence ratio to DMSO was inactive: 97%.

Question: Which fluorescence ratio to DMSO does the source give for `N/C(=N\O)c1c(N)no[n+]1[O-]` here?
Answer: Its fluorescence ratio to DMSO is inactive: 99%.

Question: How did the fluorescence ratio to DMSO turn out when `COc1cccc(C(c2nnnn2C(C)(C)C)N2CCC(n3c(=O)[nH]c4ccccc43)CC2)c1OC` (configuration not stated) was run?
Answer: The fluorescence ratio to DMSO was inactive: 88%.

Question: For `CCOC(=O)N1CCC(Nc2ccc(C)cc2)CC1`, which fluorescence ratio to DMSO is on record?
Answer: The fluorescence ratio to DMSO was inactive: 100%.

Question: How did the fluorescence ratio to DMSO turn out when `COc1ccc(C(=O)NCC2(N3CCOCC3)CCCCC2)cc1OC` was run?
Answer: Its fluorescence ratio to DMSO is inactive: 96%.

Question: For `O=c1[nH]c2ccccc2n1C1CCN(C(c2ccnc3ccccc23)c2nnnn2C2CCCC2)CC1` (configuration not stated), which fluorescence ratio to DMSO is on record?
Answer: Its fluorescence ratio to DMSO is inactive: 155%.

Question: For `O=c1[nH]c2ccccc2n1C1CCN(C(c2cccs2)c2nnnn2C2CCCCC2)CC1` (configuration not stated), which fluorescence ratio to DMSO is on record?
Answer: The fluorescence ratio to DMSO was inactive: 87%.

Question: How did the fluorescence ratio to DMSO turn out when `O=C(NCC1(N2CCOCC2)CCCCC1)c1cc(Br)ccc1Cl` was run?
Answer: Its fluorescence ratio to DMSO is inactive: 102%.

Question: How did the fluorescence ratio to DMSO turn out when `CCCCn1nnnc1C(c1ccccc1)N1CCC(n2c(=O)[nH]c3ccccc32)CC1` (configuration not stated) was run?
Answer: Its fluorescence ratio to DMSO is inactive: 91%.

Question: How did the fluorescence ratio to DMSO turn out when `COc1cc(C(=O)NCC2(N3CCOCC3)CCCCC2)cc(OC)c1C` was run?
Answer: Its fluorescence ratio to DMSO is inactive: 98%.

Question: `CC(C)(C)n1nnnc1C(c1cccc2ccccc12)N1CCC(n2c(=O)[nH]c3ccccc32)CC1` (configuration not stated) was tested. Which fluorescence ratio to DMSO did it give?
Answer: Its fluorescence ratio to DMSO is inactive: 96%.

Question: With `c1ccc(CN2CCC(Nc3ccccc3)CC2)cc1` as the compound, how does the fluorescence ratio to DMSO read?
Answer: The fluorescence ratio to DMSO was inactive: 93%.

Question: How did the fluorescence ratio to DMSO turn out when `Cc1cc(N(CCCl)CCCl)ccc1C=O` was run?
Answer: The fluorescence ratio to DMSO was inactive: 94%.

Question: How did the fluorescence ratio to DMSO turn out when `CCCN1CCC(Nc2cc(OC)cc(OC)c2)CC1` was run?
Answer: Its fluorescence ratio to DMSO is inactive: 102%.

Question: Which fluorescence ratio to DMSO does the source give for `O=c1[nH]c2ccccc2n1C1CCN(C(c2ccccc2)c2nnnn2C2CCCC2)CC1` (configuration not stated) here?
Answer: Its fluorescence ratio to DMSO is inactive: 95%.

Question: How did the fluorescence ratio to DMSO turn out when `CN(C)C1(CNC(=O)c2cccc(C#N)c2)CCCCC1` was run?
Answer: The fluorescence ratio to DMSO was inactive: 102%.

Question: For `CC(C)(C)OC(=O)N1CCC(N(C(=O)c2ccccc2)c2ccc(Cl)cc2)CC1`, which fluorescence ratio to DMSO is on record?
Answer: The fluorescence ratio to DMSO was inactive: 98%.

Question: For `N#Cc1ccc(C(=O)NCC2(N3CCCCC3)CCCCC2)cc1`, which fluorescence ratio to DMSO is on record?
Answer: Its fluorescence ratio to DMSO is inactive: 93%.

Question: `O=C(NCC1(N2CCCCC2)CCCCC1)c1ccco1` was tested. Which fluorescence ratio to DMSO did it give?
Answer: The fluorescence ratio to DMSO was inactive: 111%.

Question: With `Cn1c(=O)[nH]cc(N(CCCl)CCCl)c1=O` as the compound, how does the fluorescence ratio to DMSO read?
Answer: The fluorescence ratio to DMSO was inactive: 100%.

Question: With `CN(C)c1ccc(C(=O)NCC2(N3CCCCC3)CCCCC2)cc1` as the compound, how does the fluorescence ratio to DMSO read?
Answer: The fluorescence ratio to DMSO was inactive: 101%.

Question: Which fluorescence ratio to DMSO does the source give for `Cc1ccccc1NC1(C#N)CCN(Cc2ccccc2)CC1` here?
Answer: Its fluorescence ratio to DMSO is inactive: 96%.

Question: For `CC(C)(C)n1nnnc1C(c1ccnc2ccccc12)N1CCC(n2c(=O)[nH]c3ccccc32)CC1` (configuration not stated), which fluorescence ratio to DMSO is on record?
Answer: The fluorescence ratio to DMSO was inactive: 96%.

Question: With `CCN1CCC(Nc2cccc(F)c2)CC1` as the compound, how does the fluorescence ratio to DMSO read?
Answer: Its fluorescence ratio to DMSO is inactive: 92%.

Question: `COc1ccc(C(c2nnnn2C2CCCCC2)N2CCC(n3c(=O)[nH]c4ccccc43)CC2)cc1` (configuration not stated) was tested. Which fluorescence ratio to DMSO did it give?
Answer: The fluorescence ratio to DMSO was inactive: 101%.

Question: Which fluorescence ratio to DMSO does the source give for `Cc1ccc(NC2(C#N)CCN(Cc3ccccc3)CC2)cc1` here?
Answer: Its fluorescence ratio to DMSO is inactive: 98%.

Question: How did the fluorescence ratio to DMSO turn out when `Cc1ccc(C(=O)NCC2(N3CCCCC3)CCCCC2)o1` was run?
Answer: The fluorescence ratio to DMSO was inactive: 95%.

Question: Which fluorescence ratio to DMSO does the source give for `Fc1ccccc1NC1CCN(Cc2ccccc2)CC1` here?
Answer: Its fluorescence ratio to DMSO is inactive: 98%.

Question: `O=c1[nH]c2ccccc2n1C1CCN(C(c2ccnc3ccccc23)c2nnnn2C2CCCCC2)CC1` (configuration not stated) was tested. Which fluorescence ratio to DMSO did it give?
Answer: The fluorescence ratio to DMSO was inactive: 95%.

Question: With `COc1cc(OC)cc(C(=O)NCC2(N3CCCCC3)CCCCC2)c1` as the compound, how does the fluorescence ratio to DMSO read?
Answer: The fluorescence ratio to DMSO was inactive: 97%.

Question: `CC(=O)N(c1ccccc1)C1CCNCC1` was tested. Which fluorescence ratio to DMSO did it give?
Answer: Its fluorescence ratio to DMSO is inactive: 99%.

Question: How did the fluorescence ratio to DMSO turn out when `COc1cccc(C(c2nnnn2C2CCCCC2)N2CCC(n3c(=O)[nH]c4ccccc43)CC2)c1OC` (configuration not stated) was run?
Answer: The fluorescence ratio to DMSO was inactive: 95%.

Question: Which fluorescence ratio to DMSO does the source give for `CCC(c1nnnn1C1CCCCC1)N1CCC(n2c(=O)[nH]c3ccccc32)CC1` (configuration not stated) here?
Answer: The fluorescence ratio to DMSO was inactive: 100%.

Question: `CN1CCC(Nc2ccc(Cl)cc2)CC1` was tested. Which fluorescence ratio to DMSO did it give?
Answer: The fluorescence ratio to DMSO was inactive: 99%.

Question: For `CCC(CO)(C(=O)OC1CN2CCC1CC2)c1ccccc1` (configuration not stated), which fluorescence ratio to DMSO is on record?
Answer: The fluorescence ratio to DMSO was inactive: 103%.

Question: For `COc1cc(OC)cc(C(=O)NCC2(N3CCOCC3)CCCCC2)c1`, which fluorescence ratio to DMSO is on record?
Answer: Its fluorescence ratio to DMSO is inactive: 97%.

Question: Which fluorescence ratio to DMSO does the source give for `COc1cccc(C(c2nnnn2C2CCCC2)N2CCC(n3c(=O)[nH]c4ccccc43)CC2)c1OC` (configuration not stated) here?
Answer: Its fluorescence ratio to DMSO is inactive: 94%.

Question: `COc1cccc(C(=O)N(c2cc(C)cc(C)c2)C2CCN(C(=O)OC(C)(C)C)CC2)c1` was tested. Which fluorescence ratio to DMSO did it give?
Answer: The fluorescence ratio to DMSO was inactive: 98%.

Question: Which fluorescence ratio to DMSO does the source give for `CCCOc1ccc(C(=O)NCC2(N(C)C)CCCCC2)cc1` here?
Answer: The fluorescence ratio to DMSO was inactive: 97%.

Question: With `O=c1[nH]c2ccccc2n1C1CCN(C(c2cc3ccccc3o2)c2nnnn2C2CCCC2)CC1` (configuration not stated) as the compound, how does the fluorescence ratio to DMSO read?
Answer: The fluorescence ratio to DMSO was inactive: 98%.

Question: For `CC(C)(C)OC(=O)N1CCC(Nc2ccccc2)CC1`, which fluorescence ratio to DMSO is on record?
Answer: Its fluorescence ratio to DMSO is inactive: 99%.

Question: For `O=C(O)C1(Nc2ccccc2)CCN(Cc2ccccc2)CC1`, which fluorescence ratio to DMSO is on record?
Answer: The fluorescence ratio to DMSO was inactive: 96%.

Question: For `NN(c1ccccc1)C1CCN(CCc2ccccc2)CC1`, which fluorescence ratio to DMSO is on record?
Answer: Its fluorescence ratio to DMSO is inactive: 99%.

Question: Which fluorescence ratio to DMSO does the source give for `CCOc1ncccc1C(=O)NCC1(N2CCOCC2)CCCCC1` here?
Answer: The fluorescence ratio to DMSO was inactive: 97%.

Question: How did the fluorescence ratio to DMSO turn out when `CN1CCC(Nc2ccc(F)c(Cl)c2)CC1` was run?
Answer: The fluorescence ratio to DMSO was inactive: 102%.

Question: For `CCOC(=O)N1CCC(Nc2ccc(OC)cc2)CC1`, which fluorescence ratio to DMSO is on record?
Answer: The fluorescence ratio to DMSO was inactive: 103%.

Question: Which fluorescence ratio to DMSO does the source give for `CCCCn1nnnc1C(c1ccc(OC)cc1)N1CCC(n2c(=O)[nH]c3ccccc32)CC1` (configuration not stated) here?
Answer: The fluorescence ratio to DMSO was inactive: 96%.

Question: With `O=C(OC1CN2CCC1CC2)C1c2ccccc2Oc2ccccc21` (configuration not stated) as the compound, how does the fluorescence ratio to DMSO read?
Answer: Its fluorescence ratio to DMSO is inactive: 108%.

Question: For `O=c1[nH]c2ccccc2n1C1CCN(C(c2cc3ccccc3o2)c2nnnn2C2CCCCC2)CC1` (configuration not stated), which fluorescence ratio to DMSO is on record?
Answer: The fluorescence ratio to DMSO was inactive: 103%.

Question: For `O=C(NCC1(N2CCCCC2)CCCCC1)c1ccc(Cl)s1`, which fluorescence ratio to DMSO is on record?
Answer: The fluorescence ratio to DMSO was inactive: 102%.

Question: Which fluorescence ratio to DMSO does the source give for `N#CC1(Nc2ccccc2)CCN(Cc2ccccc2)CC1` here?
Answer: Its fluorescence ratio to DMSO is inactive: 94%.

Question: For `COc1ccc(Cl)cc1C(=O)NCC1(N2CCOCC2)CCCCC1`, which fluorescence ratio to DMSO is on record?
Answer: Its fluorescence ratio to DMSO is inactive: 101%.

Question: Which fluorescence ratio to DMSO does the source give for `O=C(NCC1(N2CCOCC2)CCCCC1)c1cc2ccccc2o1` here?
Answer: Its fluorescence ratio to DMSO is inactive: 98%.

Question: For `O=c1[nH]c2ccccc2n1C1CCN(C(c2ccccc2OC(F)(F)F)c2nnnn2C2CCCCC2)CC1` (configuration not stated), which fluorescence ratio to DMSO is on record?
Answer: The fluorescence ratio to DMSO was inactive: 104%.

Question: Which fluorescence ratio to DMSO does the source give for `O=C(NCC1(N2CCCCC2)CCCCC1)c1ccc(Cl)nc1` here?
Answer: Its fluorescence ratio to DMSO is inactive: 103%.

Question: `Cc1cc(C)cc(N(C(=O)c2ccccc2)C2CCN(C(=O)OC(C)(C)C)CC2)c1` was tested. Which fluorescence ratio to DMSO did it give?
Answer: Its fluorescence ratio to DMSO is inactive: 102%.

Question: How did the fluorescence ratio to DMSO turn out when `CSc1ccccc1C(=O)NCC1(N2CCCCC2)CCCCC1` was run?
Answer: The fluorescence ratio to DMSO was inactive: 104%.

Question: How did the fluorescence ratio to DMSO turn out when `Cc1cccc(NC2(C#N)CCN(Cc3ccccc3)CC2)c1` was run?
Answer: The fluorescence ratio to DMSO was inactive: 101%.

Question: With `O=C(NCC1(N2CCCCC2)CCCCC1)c1ccc(=O)[nH]c1` as the compound, how does the fluorescence ratio to DMSO read?
Answer: Its fluorescence ratio to DMSO is inactive: 101%.

Question: How did the fluorescence ratio to DMSO turn out when `CCCCn1nnnc1C(c1cccs1)N1CCC(n2c(=O)[nH]c3ccccc32)CC1` (configuration not stated) was run?
Answer: Its fluorescence ratio to DMSO is inactive: 95%.
